Measured values as given in patent US20160158382A1, “AGENT FOR THE TREATMENT AND PREVENTION OF SLEEP DISORDERS” (published 2016).

Test system: mature outbred male white rats
Assay: Sedative-hypnotic activity: EEG analysis of sleep-wake cycle stages in freely moving rats
Settings: for Reduction in the number of wakefulness episodes compared to control / Number of episodes, fast-wave sleep / Number of episodes, wakefulness / Number of episodes, slow-wave sleep: 5-hour registration; for Theta-rhythm synchronization and modulation in the electrograms of sensorimotor cortex and dorsal hippocampus in the fast-wave (paradoxical) sleep phase: FIG. 2; for Number of episodes, fast-wave sleep / Number of episodes, wakefulness / Number of episodes, slow-wave sleep / Ratio between the duration of fast-wave sleep and the duration of total recording period / Duration, fast-wave sleep / Ratio between the duration of wakefulness and the duration of total recording period / Ratio between the duration of slow-wave sleep and the duration of total recording period / Duration, wakefulness / Duration, slow-wave sleep / Latency, slow-wave sleep / Latency, fast-wave sleep: intraperitoneal; for Number of episodes, fast-wave sleep / Number of episodes, wakefulness / Number of episodes, slow-wave sleep / Ratio between the duration of fast-wave sleep and the duration of total recording period / Duration, fast-wave sleep / Ratio between the duration of wakefulness and the duration of total recording period / Ratio between the duration of slow-wave sleep and the duration of total recording period / Duration, wakefulness / Duration, slow-wave sleep: N = 7, agent 2 mg/kg; for Number of episodes, fast-wave sleep: control 14.7 ± 1.59; for Number of episodes, wakefulness: control 38.7 ± 1.46; for Number of episodes, slow-wave sleep: control 39.3 ± 1.46; for Ratio between the duration of fast-wave sleep and the duration of total recording period: control 4.9 ± 0.78; for Duration, fast-wave sleep: control 16.6 ± 2.78; for Ratio between the duration of wakefulness and the duration of total recording period: control 33.2 ± 2.73; for Ratio between the duration of slow-wave sleep and the duration of total recording period: control 61.6 ± 2.49; for Duration, wakefulness: control 111.5 ± 9.58; for Duration, slow-wave sleep: control 206.3 ± 7.47; for Latency, slow-wave sleep / Latency, fast-wave sleep: n = 7, agent 2 mg/kg; for Latency, slow-wave sleep: control 17.0 ± 2.4, time from start of EEG registration to first episode; for Latency, fast-wave sleep: control 69.0 ± 4.44, time from start of EEG registration to first episode
[1] = agent 2 mg/kg, glycine 10 mg/kg, Donormyl 15 mg/kg
[2] = 5-hr. registration, agent 2 mg/kg, glycine 10 mg/kg, Donormyl 15 mg/kg
[3] = glycine 10 mg/kg, Donormyl 15 mg/kg
[4] = glycine 10 mg/kg, Donormyl 15 mg/kg, 5-hr. registration

SMILES | Reduction in the number of wakefulness episodes compared to control [1] | Effect on the percentage of fast-wave sleep compared to control (in words) [2] | Effect on the percentage of wakefulness compared to control (in words) [2] | Theta-rhythm synchronization and modulation in the electrograms of sensorimotor cortex and dorsal hippocampus in the fast-wave (paradoxical) sleep phase | Effect on fast-wave sleep onset latency compared to control (in words) [3] | Effect on slow-wave sleep onset latency compared to control (in words) [3] | Effect on the fast-wave sleep duration compared to control (in words) [3] | Effect on the number of fast-wave sleep episodes compared to control (in words) [4] | Number of episodes, fast-wave sleep [3] | Number of episodes, wakefulness [3] | Number of episodes, slow-wave sleep [3] | Ratio between the duration of fast-wave sleep and the duration of total recording period [3] | Duration, fast-wave sleep [3] | Ratio between the duration of wakefulness and the duration of total recording period [3] | Ratio between the duration of slow-wave sleep and the duration of total recording period [3] | Duration, wakefulness [3] | Duration, slow-wave sleep [3] | Latency, slow-wave sleep [3] | Latency, fast-wave sleep [3] | other results
CN(C)CCOC(C)(c1ccccc1)c1ccccn1 (centres unmarked) | 22% | trend towards an increase | statistically significant reduction | did not enhance | trend toward some increase | did not change | trend towards an increase | had no effect | 12.0 ± 1.98 | 30.2 · | 31.7 · | 6.3 ± 1.16% | 20.1 ± 3.63 min | 26.1 ± 4.39 % | 67.5 ± 3.62 % | 85.0 ± 11.87 min | 216.6 ± 6.83 min | 19.3 ± 7.41 min | 96.3 ± 17.55 min | Reduction of the duration of wakefulness compared to control (5-hr. registration, agent 2 mg/kg, Donormyl 15 mg/kg): 24%; Effect on the duration of slow-wave sleep compared to control (in words) (Donormyl 15 mg/kg): trend towards an increase; Effect on the percentage of slow-wave sleep compared to control (in words) (Donormyl 15 mg/kg): trend towards an increase; Reduction in the slow-wave sleep episodes compared to control (Donormyl 15 mg/kg, 5-hr. registration): 19%
NCC(=O)O | 26% | trend towards an increase | statistically significant reduction | did not enhance | did not show a statistically significant reduction | did not show a statistically significant reduction | trend towards an increase | had no effect | 15.2 ± 2.55 | 29 · | 32.3 ± 2.50 | 6.1 ± 0.94% | 19.8 ± 3.11 min | 28.7 ± 1.73 % | 65.2 ± 1.52% | 92.5 ± 5.54 min | 210.4 ± 5.73 min | 14.1 ± 2.39 min | 65.3 ± 15.63 min | Effect on the duration of wakefulness compared to control (in words) (glycine 10 mg/kg): decreased; Effect on the number of slow-wave sleep episodes compared to control (in words) (glycine 10 mg/kg): trend towards a reduction
